Data as given in publication PMC5984341 (2018).

B1: CBTAU-27.1 (human IgG1) (antibody, V domains shown)
VH: QVQLVESGPEMRKPGESLKISCKTSGYIFSDYWTAWVRQLPGKGLQWMGIIYSGDSDTRYHPSVQGHVTMSTDSSLTTAYLQWSSLKASDTGIYYCARLDARVDAGWQLDSWGQGTLVTVSS
VL: DIQLTQSPDSLAVSLGERATINCKSSQSVFSRDNNKNYLAWYQHKSGQPPKLLFFWASSRESGVSDRFSGSGSGTDFTLTIDNLQAEDVALYYCQHYFNTPHNFGQGTKLEIK
B2: CBTAU-28.1 (human IgG1) (antibody, V domains shown)
VH: QVQLQQSGAEVKKPGESLKISCEASGYSFTNYWIGWVRQMPGKGLEWMGIIYPGDSDTRYSPPFQGQVTITADRSITTAYLEWSSLKASDTAMYYCARVGRPSKGGWFDPWGQGTLVTVSS
VL: DIQMTQSPDSLAVSLGERATINCESSQTLLYSSNEKNYLAWYQQKPGQPPKLLISWASTPESGVPDRFSGSGSGTSFTLTISSLQAEDVAVYYCQQYYNSPYTFGQGTRLEIK
B3: dmCBTAU-27.1 (human IgG1), CBTAU-27.1 double mutant Ser27D to Tyr / Thr94 to Ile (antibody, V domains shown)
VH: B1 VH
VL: IQLTQSPDSLAVSLGERATINCKSSQSVFYRDNNKNYLAWYQHKSGQPPKLLFFWASSRESGVSDRFSGSGSGTDFTLTIDNLQAEDVALYYCQHYFNIPHNFGQGTKLEIK
B4: dmCBTAU-28.1 (human IgG1), CBTAU-28.1 double mutant Ser32 to Arg / Glu35 to Lys (antibody, V domains shown)
VH: B2 VH
VL: B2 VL with S32R, E35K

Experiments:
[1] = molecular target: T1, cognate tau peptide of CBTAU-27.1 (not named for ITC and Octet) (human, biotin (position not given) in the Octet measurements); experiment: ITC
T1 chain: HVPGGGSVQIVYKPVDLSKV

[2] = molecular target: cognate tau peptide of CBTAU-28.1 (not named for ITC and Octet) (human, biotin (position not given) in the Octet measurements); experiment: ITC

Binder | Kd [1] [nM] | Kd [2] [nM]
B1 | 650 | 
B2 |  | 880
B3 | 13 | 
B4 |  | 250

Substitutions are numbered along the chain they refer to.
